IC50 data for 1 molecule are collected here from patent US10150728B2, “Alkylene derivatives” (Shionogi & Co., Ltd., priority 2013, dated 2018).

Chains of the proteins cited; added tags and fusions are not shown. Residues count along the entry.
UniProt O00763, 27-2458: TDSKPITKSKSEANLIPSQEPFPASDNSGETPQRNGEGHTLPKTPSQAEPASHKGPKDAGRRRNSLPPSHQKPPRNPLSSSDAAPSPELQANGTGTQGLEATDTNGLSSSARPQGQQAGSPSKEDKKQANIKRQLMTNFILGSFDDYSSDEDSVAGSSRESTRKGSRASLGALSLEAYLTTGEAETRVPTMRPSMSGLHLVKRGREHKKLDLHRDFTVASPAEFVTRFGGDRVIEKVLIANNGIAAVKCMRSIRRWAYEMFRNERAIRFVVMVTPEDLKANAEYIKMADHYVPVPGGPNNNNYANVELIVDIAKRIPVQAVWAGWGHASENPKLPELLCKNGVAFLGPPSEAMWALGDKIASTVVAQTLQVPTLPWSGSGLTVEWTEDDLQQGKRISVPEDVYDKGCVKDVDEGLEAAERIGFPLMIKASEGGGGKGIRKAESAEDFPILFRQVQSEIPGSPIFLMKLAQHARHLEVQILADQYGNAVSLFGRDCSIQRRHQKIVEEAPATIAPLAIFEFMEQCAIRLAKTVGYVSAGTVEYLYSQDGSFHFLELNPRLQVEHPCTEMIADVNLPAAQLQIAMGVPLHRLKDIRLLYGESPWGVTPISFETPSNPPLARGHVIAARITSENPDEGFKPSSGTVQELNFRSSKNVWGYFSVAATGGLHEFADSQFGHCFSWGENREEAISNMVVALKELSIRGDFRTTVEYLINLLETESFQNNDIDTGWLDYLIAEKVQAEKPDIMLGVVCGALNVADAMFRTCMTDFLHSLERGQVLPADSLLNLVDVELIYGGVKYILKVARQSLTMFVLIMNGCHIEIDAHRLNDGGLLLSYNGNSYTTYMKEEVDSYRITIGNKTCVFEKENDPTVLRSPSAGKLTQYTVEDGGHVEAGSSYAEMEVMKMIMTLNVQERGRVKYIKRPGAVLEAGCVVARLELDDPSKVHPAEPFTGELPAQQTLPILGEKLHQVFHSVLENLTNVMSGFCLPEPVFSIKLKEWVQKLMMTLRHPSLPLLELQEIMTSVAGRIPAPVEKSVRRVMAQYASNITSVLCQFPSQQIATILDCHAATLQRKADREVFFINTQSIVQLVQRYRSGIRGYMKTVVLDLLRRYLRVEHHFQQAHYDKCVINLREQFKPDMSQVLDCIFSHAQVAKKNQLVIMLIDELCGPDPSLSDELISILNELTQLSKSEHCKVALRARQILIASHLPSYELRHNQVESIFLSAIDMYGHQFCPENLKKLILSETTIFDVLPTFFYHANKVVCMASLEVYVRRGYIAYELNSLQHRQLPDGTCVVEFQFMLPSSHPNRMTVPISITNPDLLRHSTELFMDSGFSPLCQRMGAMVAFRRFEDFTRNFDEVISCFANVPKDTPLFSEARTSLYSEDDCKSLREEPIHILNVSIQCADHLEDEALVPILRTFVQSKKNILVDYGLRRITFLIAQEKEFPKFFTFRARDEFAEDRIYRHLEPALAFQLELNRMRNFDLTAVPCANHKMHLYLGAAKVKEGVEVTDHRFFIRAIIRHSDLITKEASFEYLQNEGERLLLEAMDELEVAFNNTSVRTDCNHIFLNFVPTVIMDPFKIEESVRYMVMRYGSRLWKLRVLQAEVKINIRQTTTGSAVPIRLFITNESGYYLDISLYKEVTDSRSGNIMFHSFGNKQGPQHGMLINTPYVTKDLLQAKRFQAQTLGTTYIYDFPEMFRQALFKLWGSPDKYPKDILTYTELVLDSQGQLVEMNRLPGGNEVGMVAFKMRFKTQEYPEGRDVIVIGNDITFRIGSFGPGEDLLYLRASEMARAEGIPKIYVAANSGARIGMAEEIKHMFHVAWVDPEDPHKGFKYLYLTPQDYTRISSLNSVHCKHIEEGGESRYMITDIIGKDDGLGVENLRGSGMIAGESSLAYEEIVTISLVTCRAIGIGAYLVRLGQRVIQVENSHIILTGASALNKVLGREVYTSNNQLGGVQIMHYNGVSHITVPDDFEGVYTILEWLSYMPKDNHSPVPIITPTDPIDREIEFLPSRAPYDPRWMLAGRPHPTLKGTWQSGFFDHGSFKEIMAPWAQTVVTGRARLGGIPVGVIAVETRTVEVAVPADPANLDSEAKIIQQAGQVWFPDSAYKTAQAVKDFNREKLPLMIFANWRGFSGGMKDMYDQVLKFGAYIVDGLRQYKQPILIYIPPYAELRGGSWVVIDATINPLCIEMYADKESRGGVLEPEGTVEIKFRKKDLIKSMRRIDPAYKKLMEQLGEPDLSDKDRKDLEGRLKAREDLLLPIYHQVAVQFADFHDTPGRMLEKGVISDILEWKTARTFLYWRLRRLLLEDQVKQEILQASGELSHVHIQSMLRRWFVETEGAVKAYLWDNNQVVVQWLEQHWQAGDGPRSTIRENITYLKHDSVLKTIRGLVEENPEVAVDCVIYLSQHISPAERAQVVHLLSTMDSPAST

SMILES strings stand for the structures.

For this experiment, the target named is recombinant human ACC2 (Homo sapiens (Human), UniProt O00763). The experiment can be described thus: Measurement of inhibitory activity on human ACC2 (MALDI-TOF MS, acetyl CoA to malonyl CoA conversion). The conditions noted are these: Tables 155-159. The experiment is classed as biochemical. The source says: Preparation 1: Preparation of Recombinant Human ACC2
After a cDNA encoding human ACC2 (27 amino acid residue to 2458 amino acid residues from the N-terminus) was cloned from human kidney cDNA library (Clontech), human ACC2 gene containing His-tag sequence at 5′ terminus was inserted into pFastBac1 (Invitrogen). Recombinant baculovirus was generated using Bac-to-Bac baculovirus expression system (Invitrogen) according to the manufacturer's protocol. To express human ACC2, Sf-9 cells were infected with recombinant baculovirus. After infected cells were disrupted, the filtrated lysate was subjected to Ni-affinity chromatography and anion-exchange chromatography. The fractions containing human ACC2 protein were pooled as recombinant human ACC2 solution.
The Measurement of Inhibitory Activity on Human ACC1 and the ACC2
Recombinant human ACC1 and recombinant human ACC2, which were prepared by the method mentioned above, were preincubated with assay buffer solution (50 mM HEPES-KOH (pH 7.4), 10 mM magnesium chloride, 6-10 mM potassium citrate, 4 mM reduced form of glutathione, 1.5 mg/ml bovine serum albumin) for one hour. […] Then, after the samples were cocrystallized with CHCA (α-cyano-4-hydroxy cinnamic acid) matrices on MALDI target plate, by using the matrix assist laser […] time-of-flight mass spectrometer (MALDI-TOF MS), samples were measured in reflector negative mode. […]

In general, IC50 refers to the concentration that inhibits the measured activity by half. With `CC(=O)N[C@@H](C)COC1CC(COc2nccc(-c3csc(C)n3)c2Cl)C1` (stereo partly shown) [Compound I-423], the IC50 was determined as 72 nM.
